Data published in US11992490B2, “Use of JAK1 inhibitors for the treatment of cutaneous lupus erythematosus and Lichen planus (LP)” (Incyte Corporation, priority 2019, dated 2024).

Target: human JAK1 (a.a. 837-1142) (Homo sapiens, UniProt P23458)
Test: In vitro JAK kinase assay (HTRF), JAK1
Format: biochemical
Conditions: 1 mM ATP

IC50: < 0.01 µM
Compound: CN(C)Cc1cc(F)cc(OC2CCN(CC(CC#N)n3cc(-c4ncnc5[nH]ccc45)cn3)CC2)c1 (single isomer, unassigned) [Compound 14, 4-(4-{3-[(dimethylamino)methyl]-5-fluorophenoxy}piperidin-1-yl)-3-[4-(7H-pyrrolo[2,3-d]pyrimidin-4-yl)-1H-pyrazol-1-yl]butanenitrile]
